This data set concerns the target CYP2E1 (Homo sapiens, UniProt P05181).

Protein sequences, listed by entry. Tags and fused reporters are not part of them.
UniProt P05181, whole entry: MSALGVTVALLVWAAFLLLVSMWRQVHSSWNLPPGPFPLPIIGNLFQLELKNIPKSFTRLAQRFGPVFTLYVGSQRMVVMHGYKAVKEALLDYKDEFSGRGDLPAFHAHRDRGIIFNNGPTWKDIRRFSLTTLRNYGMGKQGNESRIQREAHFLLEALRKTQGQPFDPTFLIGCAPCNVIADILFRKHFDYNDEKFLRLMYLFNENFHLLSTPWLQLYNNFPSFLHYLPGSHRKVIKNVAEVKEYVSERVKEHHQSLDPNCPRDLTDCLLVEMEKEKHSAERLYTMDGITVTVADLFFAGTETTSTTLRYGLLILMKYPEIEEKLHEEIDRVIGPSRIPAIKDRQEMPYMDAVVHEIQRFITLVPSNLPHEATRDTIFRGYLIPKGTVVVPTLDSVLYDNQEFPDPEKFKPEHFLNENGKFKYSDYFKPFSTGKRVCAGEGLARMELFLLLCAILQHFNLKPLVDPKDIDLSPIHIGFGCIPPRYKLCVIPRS

pIC50: −log10 of the molar value.

Compound `CCN(CC)C(=S)S` had a negative logarithm of the IC50 (pIC50) of 6.40.
